Assay results from ChEMBL document CHEMBL1135556, “alpha-bromoacetophenone derivatives as neutral protein tyrosine phosphatase inhibitors: structure-Activity relationship” (Bioorg Med Chem Lett, 2002).

Chains of the proteins cited; added tags and fusions are not shown. Lines headed by an entry give the natural chain unless they say otherwise; changes in a name come on top.
UniProt P29350: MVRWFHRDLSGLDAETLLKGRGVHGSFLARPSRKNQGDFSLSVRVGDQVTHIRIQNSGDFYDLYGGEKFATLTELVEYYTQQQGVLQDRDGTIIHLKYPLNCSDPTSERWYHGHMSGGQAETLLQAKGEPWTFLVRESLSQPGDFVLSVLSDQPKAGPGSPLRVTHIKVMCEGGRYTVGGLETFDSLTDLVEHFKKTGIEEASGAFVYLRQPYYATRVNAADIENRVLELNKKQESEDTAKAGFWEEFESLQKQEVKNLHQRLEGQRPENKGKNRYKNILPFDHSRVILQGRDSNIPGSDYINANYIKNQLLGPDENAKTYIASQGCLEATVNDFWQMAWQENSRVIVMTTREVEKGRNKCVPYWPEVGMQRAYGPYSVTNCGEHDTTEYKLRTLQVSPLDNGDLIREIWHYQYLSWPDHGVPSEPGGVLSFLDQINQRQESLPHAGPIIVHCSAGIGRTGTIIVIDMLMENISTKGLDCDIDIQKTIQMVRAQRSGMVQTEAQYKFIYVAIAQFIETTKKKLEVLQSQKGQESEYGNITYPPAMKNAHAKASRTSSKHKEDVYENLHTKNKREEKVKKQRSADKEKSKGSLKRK

Legend:
[1] = molecular target: T1, Tyrosine-protein phosphatase non-receptor type 1 (Homo sapiens) (UniProt P18031); assay: Ratio between dissociation constant and First-order rate constant (Ki / K inact) of PTP 1B was determined
T1 sequence (whole entry): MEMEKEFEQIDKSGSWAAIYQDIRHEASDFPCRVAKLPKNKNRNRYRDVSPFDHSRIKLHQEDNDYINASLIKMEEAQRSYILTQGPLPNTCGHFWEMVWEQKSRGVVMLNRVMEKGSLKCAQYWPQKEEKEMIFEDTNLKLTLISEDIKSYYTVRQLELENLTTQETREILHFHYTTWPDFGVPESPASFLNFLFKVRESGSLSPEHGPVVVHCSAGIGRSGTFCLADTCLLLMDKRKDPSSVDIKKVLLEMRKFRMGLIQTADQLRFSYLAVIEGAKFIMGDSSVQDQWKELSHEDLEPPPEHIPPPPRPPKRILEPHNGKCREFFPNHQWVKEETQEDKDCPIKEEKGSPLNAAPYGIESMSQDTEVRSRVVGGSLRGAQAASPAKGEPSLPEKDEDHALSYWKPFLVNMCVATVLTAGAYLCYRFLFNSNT

[2] = molecular target: Tyrosine-protein phosphatase non-receptor type 6 (Homo sapiens, UniProt P29350); assay: Ratio between dissociation constant and First-order rate constant (Ki / K inact) of SHP 1 was determined

## O=C(O)CCC(NC(=O)[C@H](CCC(=O)O)NC(=O)CNC(=O)c1ccccc1-c1ccc(C(=O)CBr)cc1)C(=O)O (some centres not stated)
[1]
  Ratio: 36000 M⁻¹ min⁻¹
[2]
  Ratio: 666 M⁻¹ min⁻¹
